One compound from ChEMBL document CHEMBL1136094, “Novel, potent and selective cyclin D1/CDK4 inhibitors: indolo[6,7-a]pyrrolo[3,4-c]carbazoles” (Bioorg Med Chem Lett, 2003) can be followed below.

Chains of the proteins cited; added tags and fusions are not shown. A line that says so, or that is headed by a name, gives the form on record, which may keep a tag or linker.
HCT-116, as listed by the source: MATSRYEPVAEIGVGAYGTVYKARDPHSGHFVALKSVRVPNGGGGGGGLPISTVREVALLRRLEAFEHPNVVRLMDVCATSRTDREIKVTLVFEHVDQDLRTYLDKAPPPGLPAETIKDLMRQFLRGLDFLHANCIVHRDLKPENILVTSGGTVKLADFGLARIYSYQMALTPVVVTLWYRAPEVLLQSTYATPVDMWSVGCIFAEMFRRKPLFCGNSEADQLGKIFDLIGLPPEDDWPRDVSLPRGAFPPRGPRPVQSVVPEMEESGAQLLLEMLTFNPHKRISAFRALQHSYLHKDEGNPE

For the test, the system named is HCT-116. Nature of the test: Inhibition of Rb21 phosphorylation by Cyclin D1-cyclin-dependent kinase 4. In kind it is functional.

As to `COc1ccc2c3c4c(c5c(ccc6ccn(C)c65)c3n(CCN[C@H]3CC[C@H](O)CC3)c2c1)C(=O)NC4=O`, the Fold increase worked out at 1.8.
